Columns and labels:
[1] = molecular target: T1, Sodium-dependent serotonin transporter (Rattus norvegicus, UniProt P31652); experiment: Inhibition of rat brain Serotonin transporter as accumulation of [3H]5-HT; format: functional
[2] = molecular target: T2, Norepinephrine transporter (Rattus norvegicus, UniProt Q9WTR4); experiment: Inhibition of rat brain Norepinephrine transporter as accumulation of [3H]NE; format: functional
[3] = molecular target: T3, Sodium-dependent dopamine transporter (Rattus norvegicus, UniProt P23977); experiment: Inhibition of rat brain dopamine transporter as accumulation of [3H]DA; format: functional
[4] = molecular target: T3, Sodium-dependent dopamine transporter; experiment: Inhibition of [3H]WIN-35428 binding to rat brain dopamine transporter
[5] = molecular target: T1, Sodium-dependent serotonin transporter; experiment: Inhibition of rat brain Serotonin transporter uptake as [3H]5-HT accumulation
[6] = molecular target: T3, Sodium-dependent dopamine transporter; experiment: Inhibition of rat brain Dopamine transporter uptake as [3H]DA accumulation; format: functional
[7] = molecular target: T2, Norepinephrine transporter; experiment: Inhibition of rat brain Norepinephrine transporter as accumulation of [3H]-NE; format: functional

By UniProt entry, the sequences of proteins in these tests, tags left out.
UniProt P31652, whole entry: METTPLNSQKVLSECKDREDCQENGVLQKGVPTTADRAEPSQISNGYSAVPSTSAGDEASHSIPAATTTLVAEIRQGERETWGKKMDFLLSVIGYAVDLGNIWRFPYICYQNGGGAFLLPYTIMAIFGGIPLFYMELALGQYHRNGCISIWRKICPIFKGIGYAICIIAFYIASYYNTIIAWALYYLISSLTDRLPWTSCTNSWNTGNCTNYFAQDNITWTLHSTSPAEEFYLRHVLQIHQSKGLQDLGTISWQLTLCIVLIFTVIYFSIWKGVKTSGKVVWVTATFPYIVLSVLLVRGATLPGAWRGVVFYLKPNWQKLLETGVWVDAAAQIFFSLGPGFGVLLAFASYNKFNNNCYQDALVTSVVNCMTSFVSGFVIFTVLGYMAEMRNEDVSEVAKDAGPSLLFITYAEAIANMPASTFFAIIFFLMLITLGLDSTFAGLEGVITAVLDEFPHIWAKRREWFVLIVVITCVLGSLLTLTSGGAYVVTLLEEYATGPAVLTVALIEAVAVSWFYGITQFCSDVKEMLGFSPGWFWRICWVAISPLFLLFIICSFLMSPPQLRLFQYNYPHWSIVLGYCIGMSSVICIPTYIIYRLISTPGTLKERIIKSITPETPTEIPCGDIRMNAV
UniProt Q9WTR4, whole entry: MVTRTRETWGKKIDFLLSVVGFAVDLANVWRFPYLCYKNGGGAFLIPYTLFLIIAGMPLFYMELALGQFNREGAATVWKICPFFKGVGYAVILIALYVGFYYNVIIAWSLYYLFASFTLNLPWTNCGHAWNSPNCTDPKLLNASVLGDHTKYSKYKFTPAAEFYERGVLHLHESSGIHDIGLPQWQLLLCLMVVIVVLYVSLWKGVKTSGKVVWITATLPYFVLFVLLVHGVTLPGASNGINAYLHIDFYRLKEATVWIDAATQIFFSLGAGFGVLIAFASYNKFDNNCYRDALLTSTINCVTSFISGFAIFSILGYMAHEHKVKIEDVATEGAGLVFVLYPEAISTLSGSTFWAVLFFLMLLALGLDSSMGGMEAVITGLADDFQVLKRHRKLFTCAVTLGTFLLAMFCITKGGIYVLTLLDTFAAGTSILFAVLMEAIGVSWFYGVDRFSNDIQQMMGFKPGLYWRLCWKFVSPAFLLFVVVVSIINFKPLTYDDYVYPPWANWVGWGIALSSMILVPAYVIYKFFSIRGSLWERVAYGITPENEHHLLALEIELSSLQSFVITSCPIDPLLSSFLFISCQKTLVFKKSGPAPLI
UniProt P23977, whole entry: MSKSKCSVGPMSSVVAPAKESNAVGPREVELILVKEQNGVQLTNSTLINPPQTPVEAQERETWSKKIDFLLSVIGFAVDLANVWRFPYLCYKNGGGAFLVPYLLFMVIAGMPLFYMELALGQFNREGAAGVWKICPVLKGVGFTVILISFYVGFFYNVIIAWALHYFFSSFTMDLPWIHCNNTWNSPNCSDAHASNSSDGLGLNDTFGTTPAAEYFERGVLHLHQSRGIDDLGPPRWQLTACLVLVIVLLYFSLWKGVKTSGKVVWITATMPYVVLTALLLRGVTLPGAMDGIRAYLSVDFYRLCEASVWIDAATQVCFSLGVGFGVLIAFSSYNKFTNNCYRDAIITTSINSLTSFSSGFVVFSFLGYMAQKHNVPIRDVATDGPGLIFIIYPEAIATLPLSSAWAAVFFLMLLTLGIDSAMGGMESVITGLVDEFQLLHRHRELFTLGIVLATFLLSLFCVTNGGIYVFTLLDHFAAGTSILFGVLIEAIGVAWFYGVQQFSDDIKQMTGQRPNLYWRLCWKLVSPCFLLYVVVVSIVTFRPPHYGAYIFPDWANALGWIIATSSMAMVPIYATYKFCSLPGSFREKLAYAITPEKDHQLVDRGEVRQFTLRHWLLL

| Compound | Ki [1] | IC50 [2] | Ki [3] | IC50 [4] | IC50 [5] | IC50 [6] | Ki [7] |
| --- | --- | --- | --- | --- | --- | --- | --- |
| COc1ccc(CN[C@@H]2CO[C@H](C(c3ccccc3)c3ccccc3)C[C@H]2O)cc1 | 25.9 nM | 17.7 nM | 115 nM |  |  |  |  |
| COc1ccc(CNC2COC(C(c3ccccc3)c3ccccc3)CC2O)cc1 (single isomer, unassigned) | 669 nM | 445 nM | 110 nM | 182 nM | 745 nM | 148 nM |  |
| Fc1ccc(C(OCCN2CCN(CCCc3ccccc3)CC2)c2ccc(F)cc2)cc1 [VANOXERINE] |  | 114 nM |  |  |  |  | 102 nM |

Source: ChEMBL document CHEMBL1140340 (J Med Chem, 2005)
